What was measured:
[1] = target: Kappa-type opioid receptor (Homo sapiens, UniProt P41145); experiment: Displacement of [3H]-diprenorphine from kappa opioid receptor (unknown origin) expressed in CHO cells after 30 min by liquid scintillation counting
[2] = target: Kappa-type opioid receptor (Cavia porcellus, UniProt P41144); experiment: Intrinsic activity at kappa opioid receptor in Oryctolagus cuniculus (rabbit) vas deferens assessed as inhibition of electrically evoked contraction after 15 min in presence of nor-BNI

Chains of the proteins cited; added tags and fusions are not shown.
UniProt P41145, whole entry: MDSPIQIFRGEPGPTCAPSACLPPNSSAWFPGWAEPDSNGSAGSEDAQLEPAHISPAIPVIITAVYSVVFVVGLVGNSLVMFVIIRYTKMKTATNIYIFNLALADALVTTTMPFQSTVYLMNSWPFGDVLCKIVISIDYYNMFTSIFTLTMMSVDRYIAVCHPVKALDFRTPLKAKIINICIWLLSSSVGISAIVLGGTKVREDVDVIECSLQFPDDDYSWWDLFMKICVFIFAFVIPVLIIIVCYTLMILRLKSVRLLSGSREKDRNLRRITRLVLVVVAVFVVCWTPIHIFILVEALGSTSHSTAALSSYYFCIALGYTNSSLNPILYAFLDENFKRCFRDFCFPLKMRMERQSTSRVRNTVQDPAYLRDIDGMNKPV
UniProt P41144, whole entry: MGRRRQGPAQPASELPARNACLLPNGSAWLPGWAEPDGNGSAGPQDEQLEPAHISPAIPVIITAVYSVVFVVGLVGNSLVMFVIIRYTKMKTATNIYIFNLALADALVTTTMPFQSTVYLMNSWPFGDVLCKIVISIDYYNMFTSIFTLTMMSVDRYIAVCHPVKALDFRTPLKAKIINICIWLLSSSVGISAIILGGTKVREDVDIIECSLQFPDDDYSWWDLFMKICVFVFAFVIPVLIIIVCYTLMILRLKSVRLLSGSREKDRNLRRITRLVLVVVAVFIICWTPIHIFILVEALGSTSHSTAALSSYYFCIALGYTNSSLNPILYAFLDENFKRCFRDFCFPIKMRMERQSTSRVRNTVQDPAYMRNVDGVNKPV

Row | SMILES | Ki [1] | pA2 [2]
1 | COc1ccc2c3c1O[C@H]1[C@@]4(OC)C=C[C@@]5(C[C@@H]4c4ccccc4N)[C@@H](C2)N(C)CC[C@]315 | 9.91 µM | 
2 | COc1ccc2c3c1O[C@H]1[C@@]4(OC)C=C[C@@]5(C[C@@H]4c4ccc(N)cc4)[C@@H](C2)N(C)CC[C@]315 | 7.89 µM | 8.39
3 | COc1ccc2c3c1O[C@H]1[C@@]4(OC)C=C[C@@]5(C[C@@H]4c4cccc(N)c4)[C@@H](C2)N(C)CC[C@]315 | 16 µM | 
